Binding of CDR-mutated scFvs to a peptide of the spike HR2 region

Source: Li et al. 2023 (doi:10.1038/s41467-023-39022-2), MIT Lincoln Laboratory and A-Alpha Bio; data file from the FLAb repository.

All variants were tested on one target, the spike HR2 peptide PDVDLGDISGINAS (SARS-CoV-2).

Each scFv is VH, a 15-residue (Gly4Ser)3 linker, VL, as in the parent Ab-14, and differs from it in the CDRs of the heavy chain only.
VH: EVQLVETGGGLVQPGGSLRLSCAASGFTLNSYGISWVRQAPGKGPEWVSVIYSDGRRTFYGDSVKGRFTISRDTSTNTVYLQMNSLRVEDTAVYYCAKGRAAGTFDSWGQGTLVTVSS
VL: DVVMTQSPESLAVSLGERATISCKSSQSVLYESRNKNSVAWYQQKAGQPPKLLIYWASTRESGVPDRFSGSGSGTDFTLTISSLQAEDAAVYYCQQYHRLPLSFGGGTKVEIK

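The starting antibody came from a phage panning campaign against this peptide. The variants were designed computationally from a first round of random CDR variants and then made and measured. Their group label is 14H_En_Gen (En: ensemble of fine-tuned language models; Gen: genetic algorithm). AlphaSeq pools MATa yeast showing the antibodies with MATalpha yeast showing the peptide. The frequency of each diploid, read from paired DNA barcodes, reflects how well the two displayed proteins bind. The ratio of observed to expected reads was calibrated, replicate by replicate, on BCL2-family standards whose Kd was known from biolayer interferometry. The assay was run in six technical replicates.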

Variants are written as CDR1, CDR2 and CDR3 of the heavy chain (limits as in the source). Parent: GFTLNSYGIS, VIYSDGRRTFYGDSVK, GRAAGTFDS. Affinities are written as log10 Kd with Kd in nM; a lower number is a better binder. Averages over replicates are reported, and they cover detected replicates only. An entry "ND" has no value in the source: the pair was not observed among the diploids in that replicate. This suggests poor binding but is not conclusive. Three control strains display no target. For all heavy chain designs, 1% of the pairings with them gave a signal, with a median of 2.08 and one signal in twenty below 0.84, so weak values seen in few replicates may be background. Also given: how often the same scFv was detected with the empty control strains, with their mean in brackets. In the paper, a design with two or fewer of six values counts as a poor binder. Values of this round are not directly comparable with the first-round values of the same sequences. The parent sequence was in this pool as ten entries: three were never detected, three once, and four in most replicates, with averages from 0.34 to 2.37.

CDR-H1,CDR-H2,CDR-H3,log10 Kd (nM) by replicate,"mean, log10 nM",signal with controls
GFDLNEYGIS,VIYADGQRTAYAESVK,GNVAGTFDV,-0.69 -0.56 -0.83 -0.35 -0.80 -0.74,-0.66,1 of 18 (0.84)
GFDLNEYGIS,VIYADGMRTAYADSVK,GNQAGTFDI,-0.78 -0.87 -0.90 -1.43 -0.90 -0.96,-0.97,0 of 18
GFDLNEYGIS,VIYADGSRTAYADDVK,GENAGTFDM,0.05 -0.35 -0.32 0.83 -0.11 -0.48,-0.06,0 of 18
GFDLNEYGIS,VIYADGVRTAYAESVK,GENAGTFDV,ND ND ND ND ND ND,ND,0 of 18
GFDLNEYGIS,VIYADGKRTAYADDVK,GNNAGTFDV,-0.36 -0.15 -0.21 -0.09 -0.30 -0.29,-0.23,0 of 18
GFDLNEYGIS,VIYADGQRTAYADSVK,GEVAGTFDM,ND -0.15 -0.27 0.19 ND -0.41,-0.16,0 of 18
GFDLNEYGIS,VIYADGQRTAYADSVK,GGNAGTFDV,0.49 0.33 -0.18 -0.12 -0.29 0.07,0.05,0 of 18
GFDLDEYGIS,VIYADGKRTAYSDNVK,GEVAGTFDV,-0.21 0.83 0.04 -0.18 -0.46 -0.04,0.00,0 of 18
GFDLNEYGIS,VIYADGVRTAYADSVK,GNEAGTFDV,-0.02 0.79 ND ND -0.44 -0.38,-0.01,0 of 18
GFDLNEYGIS,VIYADGQRTAYTDSVK,GNVAGTFDM,-0.18 -0.20 0.60 -0.35 -0.76 -0.27,-0.19,0 of 18
GFDLNEYGIS,VIYADGVRTAYSDSVK,GETAGTFDM,-0.55 -0.69 -0.61 -0.71 0.34 0.18,-0.34,0 of 18
GFDLDEYGIS,VIYADGMRTVYADSVK,GNVAGTFDQ,-0.08 0.05 -0.04 -0.16 -0.29 0.07,-0.08,0 of 18
GFDLNEYGIS,VIYADGMRTAYSDDVK,GENAGTFDT,-0.54 -0.43 -0.40 -0.57 -0.55 -0.44,-0.49,0 of 18
GFDLNEYGIS,VIYADGMRKAYVDSVK,GENAGTFDV,-0.51 -0.55 -0.78 -0.50 -0.50 -0.68,-0.59,0 of 18
GFDLDEYGIS,VIYADGKRTAYADSVK,GEVAGTFDM,-0.85 -1.11 -0.61 -0.85 0.14 -1.45,-0.79,0 of 18
GFDLDEYGIS,VIYADGQRTAYADSVK,GQVAGTFDL,-0.10 -0.31 -0.43 -0.35 -0.38 -0.13,-0.28,0 of 18
GFDLDEYGIS,VIYADGVRTAYADSVK,GETAGTFDQ,ND 0.04 0.22 -0.86 -0.55 -0.03,-0.23,0 of 18
GFDLNEYGIS,VIYADGMRSAYADDVK,GENAGTFDV,0.06 -0.05 -0.13 -0.05 -0.16 0.04,-0.05,0 of 18
GFDLNEYGIS,VIYADGQRTAYADSVK,GHVAGTFDV,-0.01 1.43 0.40 -0.42 0.35 0.70,0.41,0 of 18
GFDLNEYGIS,VIYADGMRTSYADSVK,GQVAGTFDV,ND 2.49 0.61 1.09 1.00 2.47,1.53,0 of 18
GFDLNEYGIS,VIYADGMRTFYSDSVK,GNTAGTFDV,-0.20 -0.34 -0.33 -0.04 -0.30 0.13,-0.18,2 of 18 (1.59)
GFDLDEYGIS,VIYADGRRTAYSDSVK,GEVAGTFDQ,-0.33 -0.46 -0.43 -0.53 -0.64 -0.27,-0.44,0 of 18
GFDLNEYGIS,VIYADGMRTAYADSVK,GNSAGTFDV,-0.09 -0.20 -0.25 -0.38 -0.39 -0.01,-0.22,0 of 18
GFDLNEYGIS,VIYADGKRTAYADSVK,GETAGTFDI,0.32 0.41 -0.18 -0.66 -0.40 -0.18,-0.11,0 of 18
GFDLDEYGIS,VIYADGQRTFYADSVK,GENAGTFDV,-0.06 -0.24 -0.32 -0.16 0.05 -0.26,-0.17,1 of 18 (1.86)
GFDLNEYGIS,VIYADGMRTAYVDKVK,GNVAGTFDV,-0.34 -0.44 -0.68 -0.74 -0.51 -0.53,-0.54,0 of 18
GFDLDEYGIS,VIYADGRRTAYADSVK,GNQAGTFDI,-0.69 ND -1.02 -1.45 -0.36 -0.99,-0.90,0 of 18
GFDLNEYGIS,VIYADGMRTAYVDSVK,GEVAGTFDQ,-0.27 -0.39 0.20 -0.42 -0.74 0.29,-0.22,0 of 18
GFDLDEYGIS,VIYADGMRTAYADNVK,GQNAGTFDV,-0.44 -0.25 -0.15 0.71 -0.77 -0.32,-0.20,0 of 18
GFDLDEYGIS,VIYADGMRTSYADSVK,GQNAGTFDV,-0.75 -1.12 -0.31 -0.91 -0.49 ND,-0.72,0 of 18
GFDLNEYGIS,VIYADGVRTAYTDSVK,GNVAGTFDI,-0.29 -0.57 -0.64 -0.83 -0.65 -0.64,-0.60,1 of 18 (1.98)
GFDLNEYGIS,VIYADGVRTAYVDSVK,GEVAGTFDV,-0.09 -0.05 -0.55 -0.40 -0.32 -0.28,-0.28,0 of 18

Excerpt, the final 2 entries:

CDR-H1,CDR-H2,CDR-H3,log10 Kd (nM) by replicate,"mean, log10 nM",signal with controls
GFDLNEYGIS,VIYADGVRTAYTDSVK,GNVAGTFDI,-0.29 -0.57 -0.64 -0.83 -0.65 -0.64,-0.60,1 of 18 (1.98)
GFDLNEYGIS,VIYADGVRTAYVDSVK,GEVAGTFDV,-0.09 -0.05 -0.55 -0.40 -0.32 -0.28,-0.28,0 of 18